Assay results as given in patent publication US11479617B2, “Chelator-functionalized glycosaminoglycans” (priority 2018, dated 2022).

Assays:
NIH-3T3 fibroblasts [1] = assay: Cytocompatibility / cellular vitality
RAW 264.7 macrophages = assay: Cytocompatibility / cellular vitality
[2] = Qualitative chelation (colorimetry, dialysis); format: binding
NIH-3T3 fibroblasts [3] = assay: Sub-cellular compartment imaging (nuclei, F-actin, mitochondria); details: 10 μg mL^−1, 1 day
[4] = system: RAW 264.7 macrophages exposed to CoCl2.6H2O; assay: In vitro chelation, acute exposure; format: cell-based, murine; details: 100 μg mL^−1 CoCl2.6H2O 18 hours, then 1 mg mL^−1 for 1 minute, fresh media 1 day
[5] = Qualitative chelation (colorimetry); format: binding; details: dilute Cr^3+ and Cr^6+ in water

## OCC(S)CS (stereo not drawn)
NIH-3T3 fibroblasts [1]; 100 μg mL^−1, 2 days
  cellular vitality (Calcein AM): dramatically reduced cellular vitality
NIH-3T3 fibroblasts [1]; 2 days
  cytocompatibility (cell enumeration, metabolism, toxicity): significantly reduced proliferation in a dose-dependent manner
RAW 264.7 macrophages; 100 μg mL^−1, 2 days
  cellular vitality (Calcein AM): dramatically reduced cellular vitality
RAW 264.7 macrophages; 2 days
  cytocompatibility (cell enumeration, metabolism, toxicity): significantly reduced proliferation in a dose-dependent manner
[2]; dilute Co^2+ in water
  colorimetric response to cobalt: strongly colored chelating complexes
[2]; dilute Ni^2+ in water
  colorimetric response to nickel: strongly colored chelating complexes
NIH-3T3 fibroblasts [3]
  morphology of nuclei, F-actin and mitochondria: reduced cortical F-actin structures and disrupted mitochondrial tracks
[4]
  effect on cellular vitality: showed improvement in cellular vitality
[5]
  colorimetric response to chromium: did produce a visible colorimetric response
